From publication PMC10310055

What was measured:
Experiment in all cases: purified protein
Conditions in all cases: pH 8.3
[1] = system: CCCCCCCC(=O)CC(=O)N[C@H]1CCOC1=O
[2] = system: CCCCCCCCCC(=O)CC(=O)N[C@H]1CCOC1=O
[3] = system: CCCCCC(=O)CC(=O)N[C@H]1CCOC1=O
CCCC(=O)N[C@H]1CCOC1=O = system: CCCC(=O)N[C@H]1CCOC1=O
CCCCCC(=O)N[C@H]1CCOC1=O = system: CCCCCC(=O)N[C@H]1CCOC1=O

Substance: SsoPox V82I (Saccharolobus solfataricus P2; G264A/V82I)
- Km [1]: 617.5 ± 133 µM
- kcat/Km [1]: 3350 M⁻¹ s⁻¹
- Km [2]: 95.4 ± 13 µM
- kcat/Km [2]: 4180 M⁻¹ s⁻¹

Substance: SsoPox V82I (Saccharolobus solfataricus P2; R277A/V82I)
- Km [3]: 168.7 ± 34 µM
- kcat/Km [3]: 12200 M⁻¹ s⁻¹
- Km [1]: 91.5 ± 8 µM
- kcat/Km [1]: 56600 M⁻¹ s⁻¹
- Km [2]: 69.03 ± 7 µM
- kcat/Km [2]: 11800 M⁻¹ s⁻¹

Substance: SsoPox V82I (Saccharolobus solfataricus P2; S279A/V82I)
- Km [3]: 160.4 ± 31 µM
- kcat/Km [3]: 17800 M⁻¹ s⁻¹
- Km [1]: 112 ± 16 µM
- kcat/Km [1]: 84600 M⁻¹ s⁻¹
- Km [2]: 73.67 ± 18 µM
- kcat/Km [2]: 27600 M⁻¹ s⁻¹

Substance: SsoPox V82I (Saccharolobus solfataricus P2; V82I)
- Km (CCCC(=O)N[C@H]1CCOC1=O): 1240 ± 136 µM
- kcat/Km (CCCC(=O)N[C@H]1CCOC1=O): 102 M⁻¹ s⁻¹
- Km [3]: 504.9 ± 51 µM
- kcat/Km [3]: 1390 M⁻¹ s⁻¹
- Km (CCCCCC(=O)N[C@H]1CCOC1=O): 373 ± 32 µM
- kcat/Km (CCCCCC(=O)N[C@H]1CCOC1=O): 2150 M⁻¹ s⁻¹
- Km [1]: 197.8 ± 24 µM
- kcat/Km [1]: 12400 M⁻¹ s⁻¹
- Km [2]: 127 ± 26 µM
- kcat/Km [2]: 5010 M⁻¹ s⁻¹

Substance: SsoPox V82I (Saccharolobus solfataricus P2; V82I/W263A)
- Km [1]: 297.6 ± 29 µM
- kcat/Km [1]: 24500 M⁻¹ s⁻¹
- Km [2]: 106.7 ± 19 µM
- kcat/Km [2]: 224000 M⁻¹ s⁻¹
